Yeast UUG start: alters start codon recognition fidelity in yeast; S. cerevisiae UUG-firefly luciferase reporter, luminescence/redox ratio; activity score, % at 18.7 µM; actives 0.13% (n = 350,000); AID 602363;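 active = replicate mean at a twofold rise or more, about +100% in these data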;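 also: firefly luciferase made from a UUG start codon reports start codon fidelity; reporter light over untreated wells divided by growth signal over untreated wells; some hits fall short of that in this replicate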
ALR inh: human ALR oxidase inhibition via reduced H2O2. P55789. purified ALR, DTT oxidation, H2O2 HRP-luminol luminescence. inhibition, % (no concentration beside the values). 290,000 tested, 3.8% active. AID 485317;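 active = mean and each replicate at 75% or more; inconclusive = only one of the two met; inactive = neither met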;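 also: stock transfer was 7.5 nL into about 7.5 µL; 0% = neutral wells and 100% = wells with inactivated enzyme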
HDAC3 inh: inhibitors of human histone deacetylase 3. O15379. recombinant HDAC3, fluorogenic peptide/trypsin coupled, fluorescence. inhibition, % at 8.3 µM. 0.15% of 320,000 active; in the data active = inhibition above about 26%, passing the limit was not always enough
MC4R antag cAMP: blocks human MC4R cAMP signaling; P32245; MC4R-expressing cells, MTII-stimulated cAMP, LANCE TR-FRET; inhibition, % at 6.5 µM; 0.48% of 360,000 active; AID 540295;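 active = inhibition above its plate's cutoff, the mean of tested wells on that plate plus 3 SD, cut at about 29% in these data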;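 note: 0% = Melanotan II alone and 100% = Melanotan II plus saturating MCL0020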
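Test system: U2OS cells stably expressing human melanocortin 4 receptor (MC4R); also added: Melanotan II challenge; compound: 6.5 µM single dose; timing: 30-min compound preincubation, 1-h Melanotan II challenge, 1-h detection, room temperature; signal: Eu-cAMP/anti-cAMP TR-FRET, emission 671 nm; repeats: one well per compound, no replicates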
NALP1 inh: inhibitors of NALP1 inflammasome in yeast; S. cerevisiae NALP1/ASC/caspase-1 growth, X-gal OD620, 72 h; inhibition, % at 10 µM; 0.61% of 280,000 active; in the data active = inhibition mostly above about 24%, no sharp cut-off; inactive = mostly below about 32%
MC4R barr agon: activates human MC4R beta-arrestin recruitment; U2OS MC4R beta-arrestin complementation, luminescence; percent of melanotan II response, DMSO zero; activation, % at 8.9 µM; 0.98% of 360,000 active; AID 540308;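 active = activation above a per-plate cutoff, the mean activation of sample wells on that plate plus 3 SD, cut at about 8% in these data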
Numbers without * were called inactive; / = no result given. This is a sample that favours compounds with a hit; in the whole collection about 4.2% have one here.

Yeast UUG start | ALR inh | HDAC3 inh | MC4R antag cAMP | NALP1 inh | MC4R barr agon | compound
5.1 | / | / | / | / | / | C[C@H]1CCCCO[C@H](CN(C)S(C)(=O)=O)[C@@H](C)CN([C@@H](C)CO)C(=O)c2cc(NC(=O)c3ccccc3)ccc2O1
-10.9 | -17.2 | -11.0 | -8.6 | 27.6 | 8.3* | CCc1ccc(OCC(=O)NC(=S)Nc2ccc(S(=O)(=O)NC3CCCCC3)cc2)cc1
-13.7 | 98.3* | 3.6 | -8.3 | -1.2 | -2.0 | O=C(CSC1=NCCS1)Nc1ccc(S(=O)(=O)NC2CCCCC2)cc1
-23.5 | -11.0 | 3.3 | 5.7 | 6.7 | -2.3 | O=C(CSc1ncccn1)Nc1ccc(S(=O)(=O)N2CCCCC2)cc1
-16.2 | 98.3* | 18.4 | 1.6 | -21.3 | -1.2 | O=C(CSC1=NCCS1)Nc1ccc(S(=O)(=O)N2CCCCCC2)cc1
-15.3 | 99.3* | -1.1 | 9.5 | / | -4.0 | COC(=O)c1ccc(NC(=O)CSc2nnc(-c3cccnc3)o2)cc1
/ | / | / | 3.4 | -2.5 | -0.4 | CC(=O)Nc1ccc(NC(=O)CSC2=NCCS2)cc1
/ | 98.9* | 7.5 | / | -1.3 | / | COc1cc(NS(=O)(=O)c2ccc(NC(=O)CSC3=NCCS3)cc2)nc(OC)n1
/ | / | / | 4.9 | -11.5 | 9.3* | Cc1ccc(-c2nnc(SCC(=O)Nc3ccc(S(=O)(=O)N4CCCCCC4)cc3)o2)cc1
-37.0 | 96.8* | -9.9 | -3.1 | 8.1 | -2.0 | Cc1oc(C(=O)Nc2ccc(C(=O)O)cc2)cc1COc1ccccc1
-0.9 | 19.7 | -1.2 | 4.6 | / | -1.0 | C=CCn1c(SCC(=O)NNC(=O)Nc2ccc(C)cc2)nnc1-c1ccccc1
-20.3 | 98.6* | -1.5 | 11.6 | -3.3 | 4.0 | C=CCn1c(N)cc(=O)nc1SCC(=O)Nc1ccc(C)cc1
-1.3 | 0.0 | -11.0 | -11.9 | 23.2 | 38.4* | C=CCn1c(SCC(=O)Nc2ccc(-c3nc4ccc(C)cc4s3)cc2)nnc1-c1ccccc1
5.4 | 98.9* | 2.6 | 3.3 | -20.1 | -3.2 | Cc1ccc(NC(=O)CSc2nc(=O)cc(N)n2CCc2ccccc2)cc1
/ | 98.3* | 2.3 | 3.9 | 6.1 | 2.0 | Nc1cc(=O)nc(SCC(=O)Nc2cccc3ccccc23)n1CCc1ccccc1

Rewritten with values under each structure: entries from further up.
The line under a structure holds: Yeast UUG start, ALR inh, HDAC3 inh, MC4R antag cAMP, NALP1 inh, MC4R barr agon
> C=CCn1c(N)cc(=O)nc1SCC(=O)Nc1ccc(C)cc1
 : -20.3, 98.6*, -1.5, 11.6, -3.3, 4.0
> COC(=O)c1ccc(NC(=O)CSc2nnc(-c3cccnc3)o2)cc1
 : -15.3, 99.3*, -1.1, 9.5, /, -4.0
> O=C(CSC1=NCCS1)Nc1ccc(S(=O)(=O)NC2CCCCC2)cc1
 : -13.7, 98.3*, 3.6, -8.3, -1.2, -2.0
> CCc1ccc(OCC(=O)NC(=S)Nc2ccc(S(=O)(=O)NC3CCCCC3)cc2)cc1
 : -10.9, -17.2, -11.0, -8.6, 27.6, 8.3*

(list continues)
Yeast UUG start | ALR inh | HDAC3 inh | MC4R antag cAMP | NALP1 inh | MC4R barr agon | compound
3.5 | / | -1.1 | 7.6 | 3.3 | -2.7 | Cc1ccc(NC(=O)CSc2nc(=O)cc(N)n2-c2ccccc2)cc1
-8.7 | 90.2* | 0.0 | -0.1 | 1.4 | -0.9 | Cn1nnnc1SCc1csc(Nc2ccccc2)n1
-19.1 | 97.8* | 8.4 | -1.6 | -6.6 | -0.3 | Cc1ccc(Nc2nc(CSc3n[nH]c(N)n3)cs2)cc1
-27.9 | 98.6* | 8.1 | 2.8 | 26.9 | -2.3 | Cc1ccc(Nc2nc(CSc3nnnn3C)cs2)cc1
4.6 | / | / | / | / | / | CCCC(=O)Nc1ccc2c(c1)OC[C@H](C)N(Cc1ccccc1F)C[C@H](C)[C@@H](OC)CN(C)C2=O
-12.5 | / | / | / | / | / | C[C@@H]1CN([C@@H](C)CO)C(=O)Cc2cc(NC(=O)Nc3cccc4ccccc34)ccc2O[C@@H]1CN(C)C(=O)Nc1ccccc1
-4.6 | 0.3 | 1.0 | -1.2 | 34.0* | 0.9 | COc1ccc(S(=O)(=O)N2CCC(C(=O)NCCC(=O)NC3CC3)CC2)cc1
1.2 | / | / | / | / | / | Cc1noc(C)c1S(=O)(=O)Nc1ccc2c(c1)C(=O)N([C@@H](C)CO)C[C@@H](C)[C@@H](CN(C)CC1CCCCC1)O2
-8.0 | 99.0* | 2.7 | 10.6 | 5.6 | -1.5 | Cc1cc(C)nc(NS(=O)(=O)c2ccc(NC(=O)Cc3ccccc3F)cc2)n1
/ | 1.7 | -0.8 | 5.8 | -5.6 | -1.8 | Cc1cc(C)nc(NS(=O)(=O)c2ccc(NC(=O)Nc3ccccc3)cc2)n1
/ | 52.3 | 5.1 | -1.1 | / | -0.9 | Cc1cc(C)nc(NS(=O)(=O)c2ccc(NC(=O)COc3ccccc3F)cc2)n1
-3.2 | 98.8* | 1.1 | -1.9 | 12.8 | -0.3 | COc1cc(NS(=O)(=O)c2ccc(NC(=O)COc3ccccc3C)cc2)nc(OC)n1
23.3 | / | / | 7.3 | 5.7 | -1.4 | COc1cc(NS(=O)(=O)c2ccc(NC(=O)COc3ccc(C)cc3C)cc2)nc(OC)n1
-3.2 | 98.4* | -0.6 | 5.7 | -6.5 | 3.6 | Cc1cc(C)nc(NS(=O)(=O)c2ccc(NC(=O)NC3CCCCC3)cc2)n1
-6.6 | 94.7* | 2.1 | 4.9 | -2.6 | -0.7 | CCOc1ccccc1OCC(=O)Nc1ccc(S(=O)(=O)Nc2nc(C)cc(C)n2)cc1
-9.2 | / | / | / | / | / | CN(C)C(=O)c1cccc(-c2ccc3c(c2)[C@@H]2[C@@H](CCN2C(=O)c2ccc4c(c2)OCO4)[C@H](CO)N3)c1
5.3 | / | / | / | / | / | CC(C)C#Cc1cnc2c(c1)C(=O)N([C@H](C)CO)C[C@H](C)[C@H](CN(C)C(=O)Nc1ccccc1F)O2
/ | 97.8* | 5.2 | 1.0 | 28.0 | -1.7 | CCOC(=O)c1c(/N=C/c2cc(C)ccc2O)sc2c1CCN(C)C2
/ | 21.3 | 9.9 | 0.9 | 39.5 | -1.2 | Cc1cccc(/C=N/c2sc3c(c2C(=O)OC(C)(C)C)CCN(C)C3)c1O
1.0 | 98.4* | 0.1 | 7.4 | 15.9 | -1.8 | O=C(CN1CC[n+]2c(-c3cccs3)csc21)c1ccc(Br)cc1
5.4 | 98.4* | 8.0 | 10.4 | 22.5 | 1.6 | O=C(CN1CC[n+]2c(-c3ccccc3)csc21)c1ccc(Br)cc1
-4.5 | / | / | / | / | / | Cc1ccc(S(=O)(=O)N(C)C[C@H]2Oc3c(NC(=O)Nc4ccc(F)cc4)cccc3C(=O)N([C@H](C)CO)C[C@@H]2C)cc1
15.1 | / | / | / | / | / | C[C@@H]1CN([C@H](C)CO)C(=O)Cc2cc(NS(=O)(=O)c3cccs3)ccc2O[C@H]1CN(C)CC1CC1
-2.1 | 98.8* | 0.9 | 1.2 | / | -1.9 | Cc1nc(SCC(=O)Nc2ccc(CN3CCCC3)cc2)c2c(C)c(C)sc2n1
-6.9 | -7.1 | 3.2 | -3.7 | 3.6 | 8.4* | Cc1cc(NC(=O)CSc2nc(C(C)C)nc3sc(C)c(C)c23)no1
-8.0 | 99.2* | 2.1 | -3.2 | 2.9 | -1.1 | CC(C)c1nc(SCC(=O)Nc2ccc(C(=O)O)cc2)c2c3c(sc2n1)CCCC3
-11.5 | 4.3 | 0.0 | 18.4 | 10.9 | 0.5 | Cc1sc2nc(C(C)C)nc(SCC(=O)NC3CC3)c2c1C
-10.1 | 98.3* | -4.3 | 1.0 | 25.8 | 2.2 | CC(C)c1nc(SCC(=O)Nc2nc3c(s2)CCCC3)c2ccccc2n1
1.3 | / | / | / | / | / | Cc1noc(C)c1NC(=O)N(C)C[C@@H]1Oc2c(NC(=O)Nc3cccc4ccccc34)cccc2C(=O)N([C@@H](C)CO)C[C@H]1C
-19.1 | 98.7* | -0.3 | 17.9 | 15.4 | -1.9 | Cn1nnnc1SCc1ccc(C(=O)Nc2nccs2)cc1
10.3 | 32.4 | -3.8 | 0.6 | 0.2 | 1.7 | Cc1cc(C)cc(NC(=O)c2ccc(CSc3nnnn3C)cc2)c1
13.4 | / | / | / | / | / | O=C(C[C@@H]1CC[C@H]2[C@@H](COC[C@H](O)CN2Cc2ccccc2)O1)N[C@@H]1CCN(Cc2ccccc2)C1
5.4 | 2.0 | 1.3 | 0.1 | 31.3 | 11.4* | Cc1ccc(C)c(N2CCN(S(=O)(=O)c3ccc(-c4ccc(=O)[nH]n4)o3)CC2)c1

Printed as active in NALP1 inh, of those listed so far:
Yeast UUG start | ALR inh | HDAC3 inh | MC4R antag cAMP | NALP1 inh | MC4R barr agon | compound
-4.6 | 0.3 | 1.0 | -1.2 | 34.0* | 0.9 | COc1ccc(S(=O)(=O)N2CCC(C(=O)NCCC(=O)NC3CC3)CC2)cc1

Source: PubChem BioAssay (several laboratories)
